# Only a part is listed here, and it is no random draw. Active and inactive are the calls of the source.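 Rule for the calls: active = cell count reduction more than 3 SD above the screen-wide mean (cut at about 70% in these data); inactive = the rest.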
# Experiment: cytotoxicity in IL-1B stimulated HUVEC, primary screen, cytotoxicity control for IL-1B NFkB translocation project, imaging, Hoechst nuclear count, IL-1B stimulus (AID 845);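 note: normalized per plate to untreated control cells as the no-loss baseline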
# Details: HUVEC cell count loss, at 2 µM, active compounds read high
row,Structure (SMILES),cell count reduction
1,ClCCSc1nnc(-c2cccnc2)o1,inactive: -12.1%
